Data reported in publication PMC9792439.

Biological target: His-tagged WT-UBQLN2 (human) (UniProt Q9UHD9)
Test: pull-down

- fold more bound than K48 chains: 10 fold
Substance: K63 poly-ubiquitin (1-7) chains (from UniProt P0CG48 1-76)
